# Measurements taken from patent publication US20050256181A1, “Treating a viral disorder” (ELIXIR PHARMACEUTICALS, INC., priority 2004, published 2005).
# pIC50: −log10 of the molar value.
# Molecular target: T1, SirT1 (Homo sapiens, UniProt Q96EB6)
# T1 sequence (Q96EB6 1-747): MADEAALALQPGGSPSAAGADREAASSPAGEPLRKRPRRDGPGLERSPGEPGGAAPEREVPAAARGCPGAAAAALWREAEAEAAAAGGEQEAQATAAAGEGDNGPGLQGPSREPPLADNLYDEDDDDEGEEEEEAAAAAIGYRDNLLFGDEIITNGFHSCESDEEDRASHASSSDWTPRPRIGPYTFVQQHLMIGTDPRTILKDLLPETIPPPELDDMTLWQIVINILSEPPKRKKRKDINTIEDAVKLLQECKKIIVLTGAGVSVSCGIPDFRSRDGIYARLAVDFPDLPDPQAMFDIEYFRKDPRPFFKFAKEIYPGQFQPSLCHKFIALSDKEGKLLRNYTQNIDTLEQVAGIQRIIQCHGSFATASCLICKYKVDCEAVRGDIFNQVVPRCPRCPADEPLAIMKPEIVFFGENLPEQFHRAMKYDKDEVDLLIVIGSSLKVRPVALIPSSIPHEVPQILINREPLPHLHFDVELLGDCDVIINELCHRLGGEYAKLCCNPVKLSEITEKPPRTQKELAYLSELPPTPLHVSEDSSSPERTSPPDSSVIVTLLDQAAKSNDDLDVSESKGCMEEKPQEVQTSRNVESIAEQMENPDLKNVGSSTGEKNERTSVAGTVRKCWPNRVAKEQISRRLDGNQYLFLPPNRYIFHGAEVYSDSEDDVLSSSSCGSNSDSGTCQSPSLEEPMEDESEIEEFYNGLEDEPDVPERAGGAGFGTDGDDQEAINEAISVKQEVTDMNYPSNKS
# Assay: SirT1 p53-382 enzymatic deacetylation assay (fluorogenic Fluor-de-Lys principle)
# Type: biochemical
# From the text: An exemplary assay method includes a 1536 well format of the SirT1 enzymatic assay that is based on the commercial “Fluor-de-Lys” assay principle by Biomol, which is fluorogenic (www.biomol.com/store/Product_Data_PDFs/ak500.pdf). In this assay, deacetylation of the e-amino function of a lysyl residue is coupled to a fluorogenic “development step that is dependent on the unblocked e-amino functionality and generates fluorescent aminomethylcoumarin. Fluorescence can be read on a commercial macroscopic reader.
structure (smiles),measurement,value
"NC(=O)C1CCCc2c1[nH]c1ccccc21 (stereo not shown) [Compound 5, 2,3,4,9-Tetrahydro-1H-carbazole-1-carboxylic acid amide]",pIC50,5.00 to 6.00
